# Measured values reported in PubChem BioAssay AID893 (National Center for Advancing Translational Sciences (NCATS), 2007).
# The entries are a selection whose mix differs from that of the whole data set. Inconclusive results are not listed. Activity calls are given as the source filed them. The call rests on the fitted dose curve; in most records, active means well fitted inhibition curve with a large enough effect; inconclusive means small, poorly fitted or top-dose-only effect; inactive means no such curve, though single readings can be large or run the other way.
# Target: 3-hydroxyacyl-CoA dehydrogenase type-2 (Homo sapiens) (UniProt Q99714)
# Assay: qHTS Assay for Inhibitors of HSD17B4, hydroxysteroid (17-beta) dehydrogenase 4;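 further: the protocol describes HADH2 (HSD17B10) and not the HSD17B4 of the title; nearly all actives have a fitted effect of over 70% in size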
# Details: recombinant HSD17B10, NADH fluorescence kinetic; at 57.1 µM (top of the series)
# On the % scale 0 is the no-effect control and ±100 the full control effect.
row,SMILES,"activity change, negative = inhibition"
1,CN(CCCl)CCCl,inactive: 10.2%
2,O=[N+]([O-])C(Cl)(Cl)Cl,inactive: 0.648%
